From paper PMC4182301, “Design, synthesis and SAR exploration of tri-substituted 1,2,4-triazoles as inhibitors of the annexin A2–S100A10 protein interaction” (Bioorganic & Medicinal Chemistry, 2014)

Protein sequences, listed by entry. Tags and fused reporters are not part of them.
UniProt P60903, whole entry, species assumed: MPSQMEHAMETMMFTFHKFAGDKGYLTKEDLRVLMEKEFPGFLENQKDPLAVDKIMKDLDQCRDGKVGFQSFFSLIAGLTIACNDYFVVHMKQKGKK

Tests used:
[1] = molecular target: interaction between the AnxA2 N-terminus and S100A10 (Homo sapiens, UniProt P60903); test: Fluorescence screening assay (FRET competitive binding, Cy3-AnxA2(Ac1–14) peptide / Cy5-S100A10); conditions: Table 1, 12 observations
Method: Assessment of compound activity was performed as described.[35] Briefly, a Cy5-labelled S100A10 tracer was developed and binding of a Cy3-labelled AnxA2(Ac1–14) peptide ligand was assessed using a fluorescence resonance energy transfer readout. Assays were carried out in Nunc black non-treated 384-well plates at 20 °C in 50 μL buffer C. All incubations were performed in quadruplicate. Compounds, peptide and buffer controls were added to the wells in a 10 μL volume in 5% DMSO. Cy5-labelled S100A10 tracer (407 nM) and Cy3-labelled AnxA2(Ac1–14) peptide ligand (1.33 μM) were pre-incubated for 5 min at 20 °C and 40 μL of the preformed complex was then added to the wells and mixed for 10 s to yield a final DMSO concentration of 1%. After 5 min incubation at 20 °C, readings were taken on a Perkin Elmer Envision plate reader by excitation at 488 nm and emission at 695 nm. Fluorescence resonance energy transfer (FRET) was calculated by subtracting the sum of the fluorescence emission of S100A10-Cy5 and AA2(1–14)-Cy3 individually from that measured for the co-incubated partners. Compound binding was calculated as percentage of non-treated control and data were analysed by non-linear regression (dose response—variable slope with bottom and top parameters fixed at 0% and 100%, respectively) using Graphpad Prism Software to determine the IC50 of binding (primary assay).

[2] = molecular target: T1, native complex between annexin A2 and S100A10 (Homo sapiens, UniProt P60903); test: Co-immunoprecipitation of AnxA2 with S100A10 (native complex) from cell lysates, Western blot; assay type: binding; conditions: MDA-MB-231 cell lysates preincubated with compound or peptide; compared with vehicle
T1 construct: the native complex of the two full-length proteins, AnxA2 and S100A10; endogenous in cells; host or cells: MDA-MB-231 human breast cancer cells (lysate)
Method: In the presence of the isolated synthetic peptide AnxA2(1–14), the amount of AnxA2 in the S100A10 immunoprecipitate is reduced, due to it competing with the binding between native AnxA2 and S100A10.
Figure 5 Co-immunoprecipitation of AnxA2 with S100A10. S100A10 was immunoprecipitated from cell lysates and co-immunoprecipitation of AnxA2 was assessed by Western blotting. The amount of AnxA2 in the S100A10 immunoprecipitate was quantified using Scion Image Software and expressed as a percentage of the vehicle-treated sample (n = 4 ± SE).
Human MDA-MB-231 breast cancer cells were extracted in 50 mM Tris–HCl (pH 8.0) buffer containing 150 mM sodium chloride and 1% (v/v) NP-40. Lysates were centrifuged at 17,000×g and incubated at 4 °C for 16 h with 10 μL S100A10 antibody (BD transduction Laboratories) and 50 μL protein A/G agarose (Alpha Diagnostic International Inc). […] The supernatant was then analyzed by SDS–PAGE after which the gel was transferred to a nitrocellulose filter. […]

## CC[C@H](C)[C@H](NC(=O)[C@H](CCC(=O)O)NC(=O)[C@H](Cc1c[nH]cn1)NC(=O)[C@@H](NC(=O)[C@@H](NC(=O)[C@H](CO)NC(C)=O)[C@@H](C)O)C(C)C)C(=O)N[C@@H](CC(C)C)C(=O)N[C@@H](CS)C(=O)N[C@@H](CCCCN)C(=O)N[C@@H](CC(C)C)C(=O)N[C@@H](CO)C(=O)N[C@@H](CC(C)C)C(=O)N[C@@H](CCC(=O)O)C(=O)NCC(=O)O [Peptide, reference compound]
[1]
  IC50: 1200 nM
[2]
  amount of AnxA2 in the S100A10 immunoprecipitate: reduced
